Test results reported in patent US11344574B2, “Fluoro substituted porphyrin compounds, pharmaceutical compositions comprising the same, and methods of preparing and using the same” (Duke University, priority 2017, dated 2022).

Test: Lipophilicity by TLC retention factor Rf on silica
Format: physicochemical
Conditions: ratio of MnP path to solvent path on silica plate, 1:1:8 KNO3(sat):H2O:acetonitrile
Text: Fluorination enhances the lipophilicity of MnPs as described with TLC retention factor, Rf (compound path/solvent path). Rf was obtained on silica gel plates using acetonitrile:KNO3(sat):water=8:1:1 as previously described (Tovmasyan A, Carballal S, Ghazaryan R, Melikyan L, Weitner T, Maia C G, Reboucas J S, Radi R, Spasojevic I, Benov L, and Batinic-Haberle I. Rational Design of Superoxide Dismutase (SOD) Mimics: The Evaluation of the Therapeutic Potential of New Cationic Mn Porphyrins with Linear and Cyclic Substituents. Inorg Chem 53: 11467-83, 2014).
In some embodiments, the fluoro-substituted porphyrins of the present invention may have enhanced lipophilicity (e.g., compared to non-fluoro-substituted porphyrins). Lipophilicity can be measured via thin layer chromatography. The relative lipophilicity of a group of compounds can be determined in a given solvent system. […] The fluoro-substituted porphyrins of the present invention suitably have a lipophilicity of greater than zero in a solvent system of acetonitrile:water:KNO3 (saturated aqueous) (8:1:1). Alternatively, the lipophilicity may be quantified by the standard octanol/water partition coefficient (log P). In some embodiments, the lipophilic fluoro-substituted porphyrins may have a greater bioavailability than their hydrophilic analogs. In addition, the lipophilic fluoro-substituted porphyrins may have enhanced intracellular accumulation and/or intracellular uptake and/or potency in vivo as compared to hydrophilic analogs. Further, in other embodiments, the lipophilic fluoro-substituted porphyrins may selectively target different cellular compartments, such as the mitochrondria or the nucleus. Alternatively, other related cell/mitochrondia viability assays (e.g. MTT assay) may be used.

| Molecule | f |
| --- | --- |
| FC(F)(F)CCCC[n+]1ccccc1C1=C2C=CC3=[N+]2[Mn]24[n]5c1ccc5C(c1cccc[n+]1CCCCC(F)(F)F)=C1C=CC(=[N+]12)C(c1cccc[n+]1CCCCC(F)(F)F)=c1ccc([n]14)=C3c1cccc[n+]1CCCCC(F)(F)F [Mn4, 5,10,15,20-tetra(Mn(III) 5′,5′,5′-trifluoropentylpyridinium-2-yl)porphinato pentachloride] | .43 |
| MnTnPen-2-PyP^5+ [reference compound] | .32 |
| CC[n+]1ccccc1-c1c2nc(c(-c3cccc[n+]3CC)c3ccc([n-]3)c(-c3cccc[n+]3CC)c3nc(c(-c4cccc[n+]4CC)c4ccc1[n-]4)C=C3)C=C2.[Mn+3] [Mn1, MnTE-2-PyP^5+, reference compound] | .06 |
| Mn(III) ortho N-butoxyethylpyridylporphyrin [Mn2, reference compound] | .43 |
| FCC[n+]1ccccc1C1=C2C=CC3=[N+]2[Mn]24[n]5c1ccc5C(c1cccc[n+]1CCF)=C1C=CC(=[N+]12)C(c1cccc[n+]1CCF)=c1ccc([n]14)=C3c1cccc[n+]1CCF [Mn3, Mn(III) 5,10,15,20-tetra(2-fluoroethylpyridinium-2-yl)porphinato pentachloride] | .11 |
